Test results published in patent publication US5308606A, “Method of treating and/or diagnosing soft tissue tumors” (priority 1991, dated 1994).

Test system: liver
Test: Liver uptake, scored from images of miniature pigs by 3 investigators
Details: average score (0-3) of 3 investigators; head 72 hrs, text 24 hour images; one value per pig

- Liver Uptake (72 hrs): 2.67
Compound: O=C([O-])CC(O)(CC(=O)[O-])C(=O)[O-].[67Ga+3] [B]
